From US9486507B2, “Pro-coagulant compounds and methods of use thereof” (priority 2011, dated 2016)

Protein sequences, listed by entry. Tags and fused reporters are not part of them. Residues count along the entry.
UniProt P16294, 237-471 limits assumed: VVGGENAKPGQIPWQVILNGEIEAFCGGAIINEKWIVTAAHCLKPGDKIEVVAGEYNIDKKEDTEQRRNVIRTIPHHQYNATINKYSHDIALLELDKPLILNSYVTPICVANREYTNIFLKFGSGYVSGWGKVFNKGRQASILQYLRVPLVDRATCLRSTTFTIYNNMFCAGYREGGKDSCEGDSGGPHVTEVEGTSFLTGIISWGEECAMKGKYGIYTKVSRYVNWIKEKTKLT
UniProt P16294, 47-192 limits assumed: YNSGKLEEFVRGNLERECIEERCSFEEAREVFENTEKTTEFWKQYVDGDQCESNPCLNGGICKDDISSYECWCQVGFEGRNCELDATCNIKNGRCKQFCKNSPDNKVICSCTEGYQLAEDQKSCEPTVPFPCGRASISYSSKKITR
UniProt P00740, 227-461 limits assumed: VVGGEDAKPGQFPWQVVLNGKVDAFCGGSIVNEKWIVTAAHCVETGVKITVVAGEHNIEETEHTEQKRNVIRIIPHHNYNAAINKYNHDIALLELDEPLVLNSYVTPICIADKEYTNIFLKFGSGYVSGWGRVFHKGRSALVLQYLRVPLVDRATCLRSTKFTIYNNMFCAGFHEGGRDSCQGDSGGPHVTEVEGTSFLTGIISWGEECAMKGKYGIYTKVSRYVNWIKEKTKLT
UniProt P00740, 47-191 limits assumed: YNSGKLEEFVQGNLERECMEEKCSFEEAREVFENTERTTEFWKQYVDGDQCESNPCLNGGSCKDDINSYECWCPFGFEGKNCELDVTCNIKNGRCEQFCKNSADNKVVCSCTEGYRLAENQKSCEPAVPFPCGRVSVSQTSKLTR

Legend:
mouse FIXa (mFIXa) = mouse FIXa (mFIXa) (Mus musculus, UniProt P16294); assay: FXa generation assay with mouse FIXa; format: biochemical
Method: The EC50 values for compound 1 in a FXa generation assay using either mouse FIXa (mFIXa) or human FIXa (hFIXa) were measured. […] The data confirms that the peptide was selected for binding to hFIXa.

[1] = Stability in mouse plasma; format: in vitro ADME
Method: Certain compounds of the present disclosure have limited chemical stability in plasma. […] However, compound 2 is stable in mouse plasma for at least 3 h.
Two degradation products were found for compound 1, which were identified using mass spectroscopy: • 1. […] (SEQ ID NO: 246) (m/z theoretical: 1204.50; found 1204.44) • 2. […] (SEQ ID NO: 245) (m/z theoretical: 1317.50; found 1317.60).

FIXa = FIXa (Homo sapiens, UniProt P00740); assay: FXa generation assay with human FIXa; format: biochemical; design: purchased Haematologic Technologies
[2] = In vitro plasma stability in human FVIII deficient plasma (LC-MS); format: in vitro ADME; conditions: for Degradation (%): human plasma, 37° C.; for degradation in human plasma: two hours of incubation at 37° C.
Method: The in vitro plasma stabilities for the compounds of the present disclosure were determined using a LC-MS method. Selected compounds were spiked into 120 μL of human FVIII deficient plasma (Siemens) to give a final concentration of 50 μg/mL. An aliquot of 20 μL was taken from the sample at time 0 as control. The remaining sample was incubated at 37° C. for 2 hrs. Additional aliquots of 20 μL were taken at time points 30 min, 1 hr, 2 hrs. All samples (20 μL aliquots) were treated immediately with 100 μL of cold 100% acetonitrile, vortexed for 10 min and centrifuged at 13000 rpm for 8 min. The 100 μL of supernant was transferred to a new vial and dried by speedvac and reconstituted with 100 μL of 20% acetonitrile and 0.1% formic acid. 90 μL of reconstituted sample was injected for LC-UV-MS/MS analysis. The MS was set at triple play with full scan, zoom scan and MS/MS scans with top five ions using dynamic exclusions. 5 μL of 10 μg/mL neat peptide in water was injected as a standard control. HPLC conditions: A. 0.1% FA in water; B. 0.1% formic acid in acetonitrile, column temperature 50° C.; flow rate 0.4 mL/min; 8 min run time with fast gradient. Samples were analyzed by LC-MS, and the data was reviewed to identify any breakdown products.

Whole blood stability = format: in vitro ADME
Method: Compound 5 was also stable in whole blood for at least 120 min.

[3] = FXa generation assay, 10 nM hFIXa, 100 nM hFX, class symbols
[4] = FXa generation assay using human FIXa, class symbols

Substance: KLTCLASYCWLF [Compound 1]
- EC50 (mouse FIXa (mFIXa)): 440 nM
- degradation in mouse plasma ([1]; 0.5 hours incubation, 37° C.): significant degradation
- EC50 (FIXa; D-amino acid scan of compound 1, FXa generation assay): < 500 nM
- EC50 (FIXa; [3]): < 500 nM
- EC50 (FIXa; PL: No): 400 nM
- EC50 (FIXa; PL: Yes): 490 nM
- EC50 (FIXa; human FIXa (hFIXa), comparison with mouse FIXa): 300 nM

Substance: PRIRTVGPGSRSASGKLTCLASYCWLFWTGIA [Compound 21]
- EC50 (FIXa; [3]): < 500 nM

Substance: PRIRTVGPGSRSASGKSTCLASYCWLFWTGIA [Compound 22]
- EC50 (FIXa; [3]): 500 to 1000 nM

Substance: PRIrTVGPGSrSASGKLTCLASYCWLFWTGIA [Compound 23]
- plasma stability relative to parent compound [2]: improved when compared to compound 21
- EC50 (FIXa; [3]): < 500 nM

Substance: PRIrTVGPGSrSASGKSTCLASYCWLFWTGIA [Compound 24]
- plasma stability relative to parent compound [2]: improved compared to the stability of compound 22
- EC50 (FIXa; [3]): < 500 nM

Substance: RRAPGKLQCLASYCWLFWTGIA [Compound 3]
- Degradation (%) ([2]; 0 min): 0.00%
- Degradation (%) ([2]; 30 min): 64.72%
- Degradation (%) ([2]; 60 min): 75.71%
- Degradation (%) ([2]; 120 min): 85.26%
- degradation in human plasma [2]: about 85%
- EC50 (FIXa; [4]): < 500 nM
- EC50 (FIXa; PL: No): 115 nM
- EC50 (FIXa; PL: Yes): 125 nM

Substance: RRAPGKLTCLASYCWLFWTGIA [Compound 4]
- EC50 (FIXa; [3]): < 500 nM

Substance: k-MeLeu-TCLASYCWLF
- EC50 (FIXa; [4]): < 500 nM
- EC50 (FIXa; [3]): < 500 nM

Substance: k-MeLeu-TCLASYCWLF [Compound 2]
- time stable in mouse plasma ([1]; 37° C.): at least 3 h
- degradation products in mouse plasma ([1]; incubation at 37° C. for 3 hours): no degradation products were detectable
- EC50 (FIXa; PL: No): 200 nM
- EC50 (FIXa; PL: Yes): 230 nM

Substance: rRAPGKLTCLASYCWLFWTGIA [Compound 5]
- time stable in whole blood (Whole blood stability): at least 120 min
- Degradation (%) ([2]; 0 min): 0.00%
- Degradation (%) ([2]; 30 min): 0.00%
- Degradation (%) ([2]; 60 min): 0.00%
- Degradation (%) ([2]; 120 min): 0.00%
- degradation in human plasma [2]: no detectable degradation
- EC50 (FIXa; [3]): < 500 nM
